One compound from PMC3260180, “FRET-Based Detection of M1 Muscarinic Acetylcholine Receptor Activation by Orthosteric and Allosteric Agonists” (PLoS ONE, 2012) can be followed below.

Protein sequences, listed by entry. Tags and fused reporters are not part of them. Lines headed by an entry give the natural chain unless they say otherwise; changes in a name come on top.
UniProt P12657: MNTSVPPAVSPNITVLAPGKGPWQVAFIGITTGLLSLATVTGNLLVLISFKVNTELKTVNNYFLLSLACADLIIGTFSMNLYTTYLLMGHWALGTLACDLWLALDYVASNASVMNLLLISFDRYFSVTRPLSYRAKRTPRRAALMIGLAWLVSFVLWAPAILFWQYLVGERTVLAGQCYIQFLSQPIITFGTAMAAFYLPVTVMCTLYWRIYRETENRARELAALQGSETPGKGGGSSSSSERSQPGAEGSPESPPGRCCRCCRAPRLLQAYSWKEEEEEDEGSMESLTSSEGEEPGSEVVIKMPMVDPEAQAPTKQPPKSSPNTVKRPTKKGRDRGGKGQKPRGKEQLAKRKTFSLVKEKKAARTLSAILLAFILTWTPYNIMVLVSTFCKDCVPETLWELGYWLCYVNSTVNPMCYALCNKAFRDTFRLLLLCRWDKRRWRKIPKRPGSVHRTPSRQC

The structures appear in SMILES notation.

The experiment concerns the target M1-cam5 mAChR (Mus musculus, UniProt P12657, INS361[…]). In words: [3H]NMS saturation binding in HEK293-M1-cam5 cells. Further details: addition of the EYFP^F46L to the C-terminus of full length M1 mAChR; expressed in transfected cells; host or cells: HEK293 cells stably expressing M1-cam5 (HEK293-M1-cam5). The note with it: n = 4, read-out: dissociation constant (K D).

Take `C[N+]1(C)[C@@H]2C[C@@H](OC(=O)[C@H](CO)c3ccccc3)C[C@H]1[C@@H]1O[C@@H]12` [[^3H]NMS, N-methyl-[^3H]scopolamine]: the Kd was found to be 0.25 ± 0.03 nM.
